US4481192A, “Acid-protease inhibiting peptide derivatives” (SANOFI, priority 1982, dated 1984)
Like-named read-outs stand apart in the source and are kept apart here.

Amino acid sequences for entries named in this document (tags omitted). Residues count along the entry.
UniProt P00797, 67-406: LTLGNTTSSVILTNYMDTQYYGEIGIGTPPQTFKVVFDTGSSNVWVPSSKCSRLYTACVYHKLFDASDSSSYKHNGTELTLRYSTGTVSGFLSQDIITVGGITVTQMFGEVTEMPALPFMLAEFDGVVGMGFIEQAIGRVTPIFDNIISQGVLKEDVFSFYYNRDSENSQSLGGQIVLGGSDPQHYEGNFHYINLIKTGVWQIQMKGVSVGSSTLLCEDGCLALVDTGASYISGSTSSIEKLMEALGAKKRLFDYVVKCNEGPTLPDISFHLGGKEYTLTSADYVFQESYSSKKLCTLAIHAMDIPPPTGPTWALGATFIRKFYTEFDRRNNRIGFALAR

Target: T1, human plasma renin activity (Homo sapiens, UniProt P00797)
T1 construct: the human plasma contain and the substrate: angiotensinogen, and the enzyme: renin; from tissue; host or cells: pool of human plasma
Test: Inhibition of the human plasma renin activity (P.R.A.)
Type: biochemical
Settings: 37° C., pool of human plasma
Experimental: The angiotensin I released during the reaction (the human plasma contain and the substrate: angiotensinogen, and the enzyme: renin) is measured by radioimmunological determination using a kit.
Of course, an inhibitor of the enzyme for conversion of the PMSF (phenylmethylsulphonyl fluoride) is added to the incubation medium.
Two types of experiments were carried out:
one at pH 6, which is the optimum pH for the enzyme reaction with human renin (maleate buffer, incubation: 30 minutes), and
the other at pH 7.4, which is the physiological pH (phosphate buffer, incubation: 60 minutes).
A 10^-3 M stock solution of the peptide is made up in a mixture containing equal volumes of a solution A (19 ml of methanol+1 ml of acetic acid) and a solution B (4 ml of methanol+2 ml of sodium hydroxide solution).
The subsequent dilutions of the peptide are then prepared in the appropriate buffer in accordance with the procedures described above.

[1] = pH 7.4, phosphate buffer, incubation 60 minutes, read-out: INHIBITION OF HUMAN P.R.A. (IC50) pH 7.4

| Structure (SMILES) | IC50 (pH 6, maleate buffer, incubation 30 minutes, read-out: INHIBITION OF HUMAN P.R.A. (IC50) pH 6) [nM] | IC50 [1] [nM] |
| --- | --- | --- |
| COC(=O)C[C@H](O)[C@H](CC(C)C)NC(=O)[C@H](C)NC(=O)C[C@H](O)[C@H](CC(C)C)NC(=O)[C@@H](NC(=O)[C@@H](Cc1ccccc1)NC(=O)OC(C)(C)C)C(C)C [SR 41377, Boc--(D)Phe--Val--Sta--Ala--Sta--OCH3] | 300 | 10000 |
| COC(=O)C[C@H](O)[C@H](CC(C)C)NC(=O)[C@H](C)NC(=O)C[C@H](O)[C@H](CC(C)C)NC(=O)[C@H](Cc1c[nH]c2ccccc12)NC(=O)[C@H](Cc1c[nH]c2ccccc12)NC(=O)OC(C)(C)C [SR 41376, Boc--Trp--Trp--Sta--Ala--Sta--OMe] |  | 150 |
| CC(C)CC(=O)N[C@@H](Cc1ccccc1)C(=O)N[C@@H](Cc1ccccc1)C(=O)N[C@@H](CC(C)C)[C@@H](O)CC(=O)N[C@@H](C)C(=O)N[C@@H](CC(C)C)[C@@H](O)CC(N)=O [SR 42238, iVa--Phe--Phe--Sta--Ala--Sta--NH2] |  | 190 |
